According to publication PMC9291816 (Clinical Pharmacology and Therapeutics, 2021):

System: CYP3A
Conditions: observed, healthy adults, geometric least squares mean (90% CI)

Cc1ncc2n1-c1ccc(Cl)cc1C(c1ccccc1F)=NC2 [midazolam]
midazolam AUCinf ratio with/without risdiplam: 1.08 (0.93–1.26) | midazolam Cmax ratio with/without risdiplam: 1.16 (1.06–1.28)
